One assay has as its target CDK2/cyclin A (Homo sapiens, UniProt P24941). The assay is described as follows: Kinase assay CDK2/cyclin A. It counts as biochemical. The method, then: (§1) Kinase assays. […] This was achieved by measurement of incorporation of radioactive phosphate from ATP into appropriate polypeptide substrates. Recombinant protein kinases and kinase complexes were produced or obtained commercially. Assays were performed using 96-well plates and appropriate assay buffers (typically 25 mM β-glycerophosphate, 20 mM MOPS, 5 mM EGTA, 1 mM DTT, 1 mM […], pH 7.4), into which were added 2-4 μg of active enzyme with appropriate substrates. The reactions were initiated by addition of Mg/ATP mix (15 mM MgCl2+100 μM ATP with 30-50 kBq per well of [γ-^32P]-ATP) and mixtures incubated as required at 30° C. Reactions were stopped on ice, followed by filtration through p81 filterplates or GF/C filterplates (Whatman Polyfiltronics, Kent, UK). After washing 3 times with 75 mM aq orthophosphoric acid, plates were dried, scintillant added and incorporated radioactivity measured in a scintillation counter (TopCount, Packard Instruments, Pangbourne, Berks, UK). Compounds for kinase assay were made-up as 10 mM stocks in DMSO and diluted into 10% DMSO inrassay buffer.

The next assay has as its target CDK2/cyclin E (Homo sapiens, UniProt P24941). The assay is described as follows: Kinase assay CDK2/cyclin E. It counts as biochemical. The method, then:
as §1

The mark [1] stands for this setting: Table 2, read-out: Kinase Inhibition IC50 CDK2 cyclin A.
The mark [2] stands for this setting: Table 2, read-out: Kinase Inhibition IC50 CDK2 cyclin E.

Structures are written as SMILES. Where two headings read alike, the source gives them in different places.

Turning to `Cc1nc(C)c(-c2ccnc(Nc3ccc(N4CCOCC4)cc3)n2)s1` [Compound 2, [4-(2,4-Dimethyl-thiazol-5-yl)-pyrimidin-2-yl]-(4-morpholin-4-yl-phenyl)-amine], the IC50 on CDK2/cyclin A (setting [1]) is 2.2 µM; at CDK2/cyclin E (setting [2]) it was 3.9 µM.

With `CNc1nc(C)c(-c2ccnc(Nc3ccc(N4CCOCC4)cc3)n2)s1` [Compound 3, [4-(2-N-Methylamino-4-methyl-thiazol-5-yl)-pyrimidin-2-yl]-(4-morpholinophenyl)-amine], the IC50 was 4.7 µM at CDK2/cyclin A (setting [1]); 0.44 µM at CDK2/cyclin A (Table 3 selectivity panel, read-out: Kinase specificity IC50 CDK2/A); 0.43 µM at CDK2/cyclin E (setting [2]); 0.68 µM on CDK2/cyclin E (Table 3 selectivity panel, read-out: Kinase specificity IC50 CDK2/E).

Take `CCNc1nc(C)c(-c2ccnc(Nc3ccc(N4CCOCC4)cc3)n2)s1` [Compound 4, [4-(2-Ethylamino-4-methyl-thiazol-5-yl)-pyrimidin-2-yl]-(4-morpholin-4-yl-phenyl)-amine]: the IC50 at CDK2/cyclin A (setting [1]) amounted to 1.1 µM; at CDK2/cyclin E (setting [2]), 0.9 µM.

In the case of `CC(=O)N1CCN(c2ccc(Nc3nccc(-c4sc(C)nc4C)n3)cc2)CC1` [Compound 5, 1-(4-{4-[4-(2,4-Dimethyl-thiazol-5-yl)-pyrimidin-2-ylamino]-phenyl}-piperazin-1-yl)-ethanone], the IC50 amounted to 1.1 µM at CDK2/cyclin A (setting [1]) and 0.87 µM at CDK2/cyclin E (setting [2]).

In the case of `Cc1nc(C)c(-c2ccnc(Nc3ccc(N4CCN(S(C)(=O)=O)CC4)cc3)n2)s1` [Compound 10, [4-(2,4-Dimethyl-thiazol-5-yl)-pyrimidin-2-yl]-[4-(4-methanesulfonyl-piperazin-1-yl)-phenyl]-amine], the IC50 came to 4.4 µM on CDK2/cyclin A (setting [1]) and 15 µM at CDK2/cyclin E (setting [2]).

In the case of `CNc1nc(C)c(-c2ccnc(Nc3ccc(N4CCN(C(C)=O)CC4)cc3)n2)s1` [Compound 61, 1-(4-{4-[4-(4-Methyl-2-methylamino-thiazol-5-yl)-pyrimidin-2-ylamino]-phenyl}-piperazin-1-yl)-ethanone], the IC50 at CDK2/cyclin A (setting [1]) worked out at 2.8 µM; on CDK2/cyclin E (setting [2]) it was 0.6 µM.

For `CNc1nc(C)c(-c2ccnc(Nc3cccc(CNC(C)=O)c3)n2)s1` [Compound 63, N-{3-[4-(4-Methyl-2-methylamino-thiazol-5-yl)-pyrimidin-2-ylamino]-benzyl}-acetamide], the IC50 on CDK2/cyclin E (setting [2]) came out at 1.7 µM.

Values taken from US7432260B2, “Pyrimidine compounds” (Cyclacel Limted, priority 2002, dated 2008).
